# Measured values: PubChem BioAssay AID720553 (National Center for Advancing Translational Sciences (NCATS), 2013)
# The entries are a selection whose mix differs from that of the whole data set. Some structures show a salt or complex split into parts, the way the source records it. Activity calls are given as the source filed them.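 How the source made its calls: active means maximum activity change below -70%; inconclusive means maximum activity change from -70% to -50%; inactive means maximum activity change above -50%.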
# Tested on: Potassium voltage-gated channel subfamily H member 2, brain isoform KCNH2 3.1 (human)
# Assay: qHTS for Inhibitors of KCHN2 3.1: Mutant qHTS
# Conditions: U2OS KCNH2 3.1, thallium flux FluxOr; active compounds read low
# Description: Many antipsychotic drugs that inhibit the neurotransmitter dopamine also bind to hERG1 channel which might help explain their antipsychotic activity but also produces cardiac side effects. The discovery of the novel KCNH2 3.1 isoform offers a potential new target for the development of antipsychotic drugs without cardiac side effects. This proposal will use a high throughput thallium flux assay developed for KCNH2 to screen compounds that modulate the activity of KCNH2 3.1. The wild type KCNH2 channel will also be screened in parallel to help define the selective modulators of this KCNH2 3.1 potassium channel. The resulting compounds will be validated in electrophysiology experiments. The availability of animal models will allow future testing in vivo for effects on memory and other aspects of animal physiology linked with psychosis. NIH Chemical Genomics Center [NCGC] NIH Molecular Libraries Probe Centers Network [MLPCN] MLPCN Grant: MH096539 Assay Submitter (PI): James Barrow, Johns Hopkins University, Lieber Institute for Brain Development
# U2OS cells were resuspended in cell media containing 10% fetal calf serum (FCS) at a concentration of 2 million cells / mL. The solution was treated with the mutant (3.1) virus at 1.77 x 10^8 / mL and allowed to incubate at room temperature in the dark. After 4 hours of incubation, DMEM + 10% fetal bovine serum (FBS) was added to the cell solution. Three microliter was then dispensed into a 1536 tissue culture treated black assay plates which were incubated overnight at 37 C. Two microliter of loading buffer (HBSS + HEPES + Red40 dye quencher + FluxOr dye) was added and the assay plates were incubated for 45 min at room temperature in the dark. […] A stimulation buffer was added to the plate and the second kinetic read (2 min) was obtained. The rate constant was calculated from the kinetic reads and normalized to the positive and negative DMSO controls.
# On the % scale 0 is the no-effect control and ±100 the full control effect.
row,Structure (SMILES),activity change
1,COc1ccc(Cl)cc1C(=O)NCC1(N2CCOCC2)CCCCC1,inactive: -7.6%
2,O=C1C(O)=C([N+](=O)[O-])C(=O)C(O)=C1[N+](=O)[O-],inactive: 10.4%
3,O=C(NCC1(N2CCCCC2)CCCCC1)c1ccc(Cl)s1,inactive: 0.58%
4,N#CC1(Nc2ccccc2)CCN(Cc2ccccc2)CC1,inactive: 10.8%
5,O=C(OC1CN2CCC1CC2)C1c2ccccc2Oc2ccccc21 (configuration not stated),inactive: 0.519%
6,CCOC(=O)N1CCC(Nc2ccc(OC)cc2)CC1,inactive: 6.31%
7,Cc1cc(C)cc(N(C(=O)c2ccccc2)C2CCN(C(=O)OC(C)(C)C)CC2)c1,inactive: -10.5%
8,O=C(NCC1(N2CCCCC2)CCCCC1)c1ccc(Cl)nc1,inactive: 12.4%
9,O=C(NCC1(N2CCOCC2)CCCCC1)c1cc2ccccc2o1,inactive: 9.32%
10,Cc1cccc(NC2(C#N)CCN(Cc3ccccc3)CC2)c1,inactive: -0.514%
11,CSc1ccccc1C(=O)NCC1(N2CCCCC2)CCCCC1,inactive: -0.0758%
12,COc1ccc(C(=O)NCC2(N3CCCCC3)CCCCC2)c(OC)c1OC,inactive: -41.9%
13,CC(C)(C)OC(=O)N1CCC(N(C(=O)c2ccccc2)c2ccc(F)cc2)CC1,inactive: -4%
14,COc1ccc(C(=O)NCC2(N3CCCCC3)CCCCC2)cc1,inactive: 0.894%
15,O=C(NCC1(N2CCCCC2)CCCCC1)c1cccs1,inactive: 5.66%
16,O=C(NCC1(N2CCCCC2)CCCCC1)c1ccc(=O)[nH]c1,inactive: -2.92%
17,CCOC(=O)N1CCC(Nc2cccc(C)c2)CC1,inactive: -3.22%
18,COc1cc(C(=O)NCC2(N(C)C)CCCCC2)ccc1OC(F)F,inactive: -23.4%
19,COc1ccc(NC2CCN(CCc3ccccc3)CC2)c(OC)c1,inactive: -1.72%
20,CCOC(=O)N1CCC(Nc2ccc(F)cc2)CC1,inactive: 1.15%
21,O=P1(N(CCCl)CCCl)SCCCS1,inactive: 19%

row,Structure (SMILES),activity change
1,CCCCOc1ccc(C(=O)NCC2(N3CCOCC3)CCCCC2)cc1,inactive: -36%
2,O=C(NCC1(N2CCCCC2)CCCCC1)c1ccc(F)cc1,inactive: 0.588%
3,O=C1CCN(Cc2ccccc2)CC1,inactive: 0.237%
4,CCOc1ccc(C)cc1CN(CCCl)CCCl,inactive: -16.5%
5,COc1cc(C(=O)NCC2(N3CCCCC3)CCCCC2)ccc1OC(F)F,inactive: -45.3%
6,O=C(NCC1(N2CCOCC2)CCCCC1)c1cc(=O)[nH]c2ccccc12,inactive: 1.87%
7,CN1CCN(CCOC(=O)C(O)(c2ccccc2)c2ccccc2)CC1,inactive: 1.32%
8,COc1ccc(NC2CCN(C(=O)OC(C)(C)C)CC2)cc1,inactive: -1.43%
9,CC(C)c1ccc(C(=O)NCC2(N3CCOCC3)CCCCC2)cc1,inactive: -6.33%
10,O=[N+]([O-])c1cc([N+](=O)[O-])c(NCC2CCS(=O)(=O)C2)c([N+](=O)[O-])c1 (configuration not stated),inactive: -2.19%
11,O=C(NCC1(N2CCCCC2)CCCCC1)c1cccc(C(F)(F)F)c1,inactive: -7.74%
12,N#CC1(Nc2ccccc2)CCN(CCc2ccccc2)CC1,inactive: -2.44%
13,CCN1CCC(Nc2ccc(Cl)cc2)CC1,inactive: 1.49%
14,O=C(NCC1(N2CCCCC2)CCCCC1)c1cccc([N+](=O)[O-])c1,inactive: 8.37%
15,CSc1ccc(C(=O)NCC2(N3CCOCC3)CCCCC2)cc1,inactive: -12.3%
16,O=[N+]([O-])c1cc([N+](=O)[O-])c(Nc2ccc(Cl)cc2)c([N+](=O)[O-])c1,inactive: -11.1%
17,CCCOc1ccc(C(=O)NCC2(N(C)C)CCCCC2)cc1OC,inactive: -1.09%
18,Cc1ccc(C(=O)NCC2(N(C)C)CCCCC2)o1,inactive: 11.5%
19,O=C(OC1CN2CCC1CC2)c1ccc([N+](=O)[O-])cc1 (configuration not stated),inactive: -6.16%
20,CN1CCC(Nc2cccc(F)c2)CC1,inactive: 19.2%
21,O=C(NCC1(N2CCCCC2)CCCCC1)c1cncc(Br)c1,inactive: 0.247%

row,Structure (SMILES),activity change
1,COc1ccc2c(c1O)-c1c(O)c(OC)cc3c1[C@H](C2)[N+](C)(C)CC3.O=[N+]([O-])c1cc([N+](=O)[O-])c([O-])c([N+](=O)[O-])c1[O-],inactive: 3.86%
2,O=C(NCC1(N2CCOCC2)CCCCC1)c1cc(F)c(F)cc1Cl,inactive: -40.6%
3,COc1cc(OC)c(C(=O)NCC2(N(C)C)CCCCC2)cc1OC,inactive: 20.6%
4,CC(C)c1ccc(NC2CCN(C(=O)OC(C)(C)C)CC2)cc1,inactive: 27.6%
5,O=[N+]([O-])c1cc([N+](=O)[O-])c(OC2CCCCC2O)c([N+](=O)[O-])c1 (configuration not stated),inactive: -0.0625%
6,CN(C)c1cccc(C(=O)NCC2(N3CCCCC3)CCCCC2)c1,inactive: -11.4%
7,COc1ccc(CN(CCCl)CCCl)cc1Cl,inactive: -24.3%
8,O=C(O)c1cccc(Nc2c([N+](=O)[O-])cc([N+](=O)[O-])cc2[N+](=O)[O-])c1,inactive: 0.842%
9,CCc1cc(C(=O)NCC2(N3CCCCC3)CCCCC2)sc1C,inactive: -26.7%
10,O=C(OC1CN2CCC1CC2)C1c2ccccc2C=Cc2ccccc21 (configuration not stated),inactive: -5.01%
11,CCOC(=O)N1CCC(Nc2ccc(C)cc2)CC1,inactive: 1.19%
12,N/C(=N\O)c1c(N)no[n+]1[O-],inactive: -2.12%
13,COc1ccc(C(=O)NCC2(N3CCOCC3)CCCCC2)cc1OC,inactive: 14.1%
14,COc1cc(C(=O)NCC2(N3CCOCC3)CCCCC2)cc(OC)c1C,inactive: -18.1%
15,O=C(NCC1(N2CCOCC2)CCCCC1)c1cc(Br)ccc1Cl,inactive: 5.06%
16,CN(C)C1(CNC(=O)c2cccc(C#N)c2)CCCCC1,inactive: 25.8%
17,CCCN1CCC(Nc2cc(OC)cc(OC)c2)CC1,inactive: -29.9%
18,c1ccc(CN2CCC(Nc3ccccc3)CC2)cc1,inactive: -7.42%
19,CCOC(=O)C(CC)C1=NC(C)(C)Cc2ccccc21.O=[N+]([O-])c1cc([N+](=O)[O-])c(O)c([N+](=O)[O-])c1 (configuration not stated),inactive: 5.45%
20,N#Cc1ccc(C(=O)NCC2(N3CCCCC3)CCCCC2)cc1,inactive: -0.619%
